In patent US20140336159A1, “METHODS FOR TREATING AND DIAGNOSING RESPIRATORY TRACT INFECTIONS” (PULMATRIX, INC., priority 2011, published 2014):

Tested on: LPS stimulated peritoneal macrophages
Settings: compared to untreated (0) cells

Which “gene expression of IP-10, ENA78, GM-CSF and MIP-2” value does the source give for `[Ca+2].[Cl-].[Cl-]` [calcium chloride] here?
Its value is “significantly reduced”.
